Drawing on ChEMBL document CHEMBL2203077, “Discovery of a novel series of 4-quinolone JNK inhibitors” (Bioorg Med Chem Lett, 2012), this text covers IC50 for one compound.

Sequences of proteins named here, by UniProt entry; tags and fusion partners are left off. A change or cut given only in a name is not applied to a line headed by its entry.
UniProt P45984: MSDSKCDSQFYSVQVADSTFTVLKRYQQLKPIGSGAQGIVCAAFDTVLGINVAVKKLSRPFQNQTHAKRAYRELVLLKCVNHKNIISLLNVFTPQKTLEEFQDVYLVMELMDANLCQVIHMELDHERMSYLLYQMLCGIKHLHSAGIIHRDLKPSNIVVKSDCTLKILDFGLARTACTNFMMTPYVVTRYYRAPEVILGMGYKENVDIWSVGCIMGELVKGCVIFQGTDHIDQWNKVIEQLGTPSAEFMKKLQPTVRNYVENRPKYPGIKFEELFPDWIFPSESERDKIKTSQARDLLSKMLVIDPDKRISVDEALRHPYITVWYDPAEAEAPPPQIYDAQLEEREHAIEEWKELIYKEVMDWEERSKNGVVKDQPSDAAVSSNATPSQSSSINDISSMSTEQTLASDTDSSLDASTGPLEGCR
UniProt P45983: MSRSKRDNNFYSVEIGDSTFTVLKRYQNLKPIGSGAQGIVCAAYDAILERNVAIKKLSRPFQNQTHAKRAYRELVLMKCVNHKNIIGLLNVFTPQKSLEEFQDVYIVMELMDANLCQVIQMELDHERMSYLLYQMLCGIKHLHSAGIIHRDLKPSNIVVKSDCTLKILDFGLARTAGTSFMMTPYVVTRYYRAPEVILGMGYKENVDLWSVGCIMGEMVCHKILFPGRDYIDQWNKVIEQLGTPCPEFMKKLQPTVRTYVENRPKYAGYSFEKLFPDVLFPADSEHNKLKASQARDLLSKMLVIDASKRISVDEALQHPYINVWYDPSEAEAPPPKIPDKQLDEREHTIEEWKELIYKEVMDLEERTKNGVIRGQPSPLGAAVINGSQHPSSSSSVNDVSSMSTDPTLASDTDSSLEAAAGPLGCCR

Each structure is given as a SMILES string.

Assay [1] concerns the target Mitogen-activated protein kinase 9 (Homo sapiens, UniProt P45984). The experiment in a line: Inhibition of human JNK2 alpha2 using GST-tagged ATF2 as substrate and [gamma33P]ATP incubated for 10 mins prior to substrate addition measured after 30 mins by scintillation counting.
The target in assay [2] is Mitogen-activated protein kinase 8 (Homo sapiens, UniProt P45983). The experiment in a line: Inhibition of human JNK1 alpha1 using GST-tagged ATF2 as substrate and [gamma33P]ATP incubated for 10 mins prior to substrate addition measured after 30 mins by scintillation counting.

Turning to `COC(=O)c1c(-c2ccccc2)c2cc(Br)ccc2c(=O)n1Cc1ccc(S(C)(=O)=O)cc1`, the IC50 (usually the point on the concentration scale where inhibition reaches its midpoint) in assay [1] was 72 nM; in assay [2] it was 43 nM.
